Common to all, as to format: in vivo
The subject of assay [1] is Pieris brassicae (cabbage white caterpillars). The assay can be described thus: Pest toxicity test. Further details: key to the marks not given beside the values. Particulars: 0.1% by weight, 2 days.
Assay [2] concerns Plutella maculipennis (diamond back moth larvae). The assay can be described thus: Pest toxicity test. The arrangement: key to the marks not given beside the values. Particulars: 0.1% by weight; mustard/paper; 2 days.
Assay [3] deals with larvae of the blowfly (Lucilia serrata). The assay can be described thus: Insecticidal test on blowfly larvae on treated filter paper. The conditions noted are these: scale of 1 to 6; filter paper with horse serum.

Regarding `O=[N+]([O-])c1cc([N+](=O)[O-])c(Nc2c(Cl)c(F)nc(F)c2Cl)c([N+](=O)[O-])c1`, the antifeeding effect result in assay [1] and in assay [2] was “A” each time. In addition, the “Activity relative to lindane” value in assay [3] is on record as 5.
On to `O=[N+]([O-])c1cc([N+](=O)[O-])c(Nc2c(F)c(F)nc(F)c2F)c([N+](=O)[O-])c1`, for which, in assay [3], the “Activity relative to lindane” value stood at 5.

Values taken from patent US3965109A, “Certain aryl amino pyridines” (priority 1971, dated 1976).
